Drawing on patent US20060148760A1, “Method for the sysnthesis of compounds of formula I and their uses thereof” (TransTech Pharma, priority 2000, published 2006), this text covers IC50 for one compound.

The chains behind the UniProt entries cited, without tags or fusion partners. Residues count along the entry.
UniProt Q15109, 23-342 limits assumed: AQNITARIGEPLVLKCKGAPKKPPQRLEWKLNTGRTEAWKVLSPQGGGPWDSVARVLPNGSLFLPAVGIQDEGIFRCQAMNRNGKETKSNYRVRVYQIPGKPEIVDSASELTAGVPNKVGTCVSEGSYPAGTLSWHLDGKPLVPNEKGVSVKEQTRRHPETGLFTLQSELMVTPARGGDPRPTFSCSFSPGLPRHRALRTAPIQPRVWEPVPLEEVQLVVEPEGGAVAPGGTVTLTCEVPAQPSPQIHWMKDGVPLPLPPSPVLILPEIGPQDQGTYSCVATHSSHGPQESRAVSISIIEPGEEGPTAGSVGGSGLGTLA

The target of one experiment is T1, S-100b/RAGE interaction (Homo sapiens, UniProt Q15109).
T1 construct: generate soluble RAGE (sRAGE) comprised of the V and C domains
Nature of the experiment: ELISA assay, S-100b binding to sRAGE. As to conditions: plate-bound S100b, concentration at which 50% signal is inhibited. The method, then:
(§1) S100b, β-amyloid and CML (500 ng/100 μL/well) in 100 mM sodium bicarbonate/sodium carbonate buffer (pH 9.8) is loaded onto the wells of a NUNC Maxisorp flat bottom 96—well microtitre plate. The plate is incubated at 4° C. overnight. The wells are aspirated and treated with 50 mM imidazole buffer saline (pH 7.2) (with 1 mM CaCl2/MgCl2) containing 1% bovine serum albumin (BSA) (300 μL/well) for two h at 37° C.
(§2) Test compounds are dissolved in nanopure water (concentration: 10-100 μM). DMSO may be used as co-solvent. 25 μL of test compound solution in 2% DMSO is added, along with 75 μL sRAGE (4.0×10^−4 mg/mL FAC) to each well and samples are incubated for 1 h at 37° C. The wells are washed 3 times with 155 mM NaCl pH 7.2 buffer saline and are soaked 10 seconds between each wash. Non-radioactive binding is performed by adding:
(§3) 10 μL Biotinylated goat F(ab′)2 Anti-mouse IgG. (8.0×10^−4 mg/mL, FAC)
(§4) 10 μL Alk-phos-Sterptavidin (3×10^−3 mg/mL FAC)
(§5) 10 μL Polyclonal antibody for sRAGE (FAC 6.0×10^−3 mg/mL) to 5 mL 50 mM imidazole buffer saline (pH 7.2) containing 0.2% bovine serum albumin and 1 mM CaCl2. The mixture is incubated for 30 minutes at 37° C. […] The reaction is quenched with 10 μL of stop solution (0.5 N NaOH in 50% ethanol) and the absorbance is measured spectrophotometrically with a microplate reader at 405 nm. […]
(In general: An ELISA detects its analyte on a solid surface through an enzyme-linked reagent.)

The target of experiment [1] is T2, Carboxymethyl Lysine (CML)/RAGE interaction (Homo sapiens, UniProt Q15109).
T2 construct: generate soluble RAGE (sRAGE) comprised of the V and C domains
Nature of the experiment: ELISA assay, CML binding to sRAGE. To be noted: plate-bound CML. The method, then:
as §1, §2, §3, §4, §5

Experiment [2] concerns the target T3, β-amyloid—RAGE interaction (Homo sapiens, UniProt Q15109).
T3 construct: generate soluble RAGE (sRAGE) comprised of the V and C domains
Nature of the experiment: ELISA assay, β-amyloid binding to sRAGE. To be noted: plate-bound β-amyloid. The method, then:
as §1, §2, §3, §4, §5

Structures can show the parent of a compound that is named as a salt.

Broadly, the IC50 is the concentration needed to halve the response being measured. For the compound `CCCCOc1cc(C(=O)OCCN(CC)CC)ccc1NC(=O)[C@H](N)Cc1ccc2ccccc2c1` [Example 1, (R)-3-(2-Naphthyl)-2-aminopropionic Acid 4-Diethylaminoethoxycarbonyl-2-butoxyaniline Amide Dihydrochloride], the IC50 is 1750 nM at S-100b/RAGE interaction, 2290 nM in experiment [1] and 3400 nM in experiment [2].
